PubChem BioAssay (NCI)
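Interpolation was linear, between the two tested concentrations surrounding the appropriate level; five concentrations were tested over 48 hours in 96-well plates. Abbreviation: GI50, concentration required for 50% inhibition of growth. TGI denotes the concentration required for complete inhibition of growth.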

Columns and labels:
Experiment in all cases: inhibition of tumour cell growth, NCI panel, 48 h
SF-295 CNS = test system: SF-295 CNS
SF-539 CNS = test system: SF-539 CNS
OVCAR-4 ovarian = test system: OVCAR-4 ovarian
A498 renal = test system: A498 renal
HS 578T breast = test system: HS 578T breast
MCF7 breast = test system: MCF7 breast
U251 CNS = test system: U251 CNS
CAKI-1 renal = test system: CAKI-1 renal
RXF 393 renal = test system: RXF 393 renal
MALME-3M melanoma = test system: MALME-3M melanoma
OVCAR-8 ovarian = test system: OVCAR-8 ovarian
NCI-H23 lung = test system: NCI-H23 lung
SW-620 colon = test system: SW-620 colon
MDA-MB-231 breast = test system: MDA-MB-231 breast
SR leukemia = test system: SR leukemia
SK-MEL-28 melanoma = test system: SK-MEL-28 melanoma
CCRF-CEM leukemia = test system: CCRF-CEM leukemia
HL-60(TB) leukemia = test system: HL-60(TB) leukemia
NCI-H522 lung = test system: NCI-H522 lung
SF-268 CNS = test system: SF-268 CNS
786-0 renal = test system: 786-0 renal
SK-OV-3 ovarian = test system: SK-OV-3 ovarian
SNB-19 CNS = test system: SNB-19 CNS
NCI/ADR-RES ovarian = test system: NCI/ADR-RES ovarian

O=[N+]([O-])c1ccc(N/N=C2/CCCC/C(=N\Nc3ccc([N+](=O)[O-])cc3[N+](=O)[O-])CS(=O)(=O)C2)c([N+](=O)[O-])c1
GI50 (SF-295 CNS): 29.5 µM
GI50 (SF-539 CNS): 26.4 µM
GI50 (OVCAR-4 ovarian): 21.3 µM
GI50 (A498 renal): 0.316 µM
TGI (A498 renal): 26.1 µM
GI50 (HS 578T breast): 16.7 µM
TGI (HS 578T breast): 27.9 µM
GI50 (MCF7 breast): 29.5 µM
GI50 (U251 CNS): 34.5 µM
TGI (U251 CNS): > 100 µM
GI50 (CAKI-1 renal): > 100 µM
TGI (CAKI-1 renal): > 100 µM
GI50 (RXF 393 renal): 13 µM
GI50 (MALME-3M melanoma): > 100 µM
TGI (MALME-3M melanoma): > 100 µM
GI50 (OVCAR-8 ovarian): 17.9 µM
GI50 (NCI-H23 lung): 23.1 µM
GI50 (SW-620 colon): > 100 µM
TGI (SW-620 colon): > 100 µM
GI50 (MDA-MB-231 breast): 17.1 µM
TGI (MDA-MB-231 breast): 31.4 µM
GI50 (SR leukemia): > 100 µM
TGI (SR leukemia): > 100 µM
GI50 (SK-MEL-28 melanoma): 21.8 µM
GI50 (CCRF-CEM leukemia): > 100 µM
TGI (CCRF-CEM leukemia): > 100 µM
GI50 (HL-60(TB) leukemia): > 100 µM
TGI (HL-60(TB) leukemia): > 100 µM
GI50 (NCI-H522 lung): 78.7 µM
TGI (NCI-H522 lung): > 100 µM
GI50 (SF-268 CNS): 18.6 µM
GI50 (786-0 renal): 23.5 µM
GI50 (SK-OV-3 ovarian): 93.8 µM
TGI (SK-OV-3 ovarian): > 100 µM
GI50 (SNB-19 CNS): 80.9 µM
TGI (SNB-19 CNS): > 100 µM
GI50 (NCI/ADR-RES ovarian): > 100 µM
TGI (NCI/ADR-RES ovarian): > 100 µM
